SR-BI DiI inh – inhibitors of mouse SR-BI mediated HDL lipid uptake | Q61009 | ldlA[mSR-BI] CHO cells, DiI-HDL uptake fluorescence, 3 h | inhibition, % at 12.5 µM | hit rate 0.96% among 320,000;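 active = mean replicate inhibition of at least 70% and a set share of replicates each scoring 70 or more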
Yeast UUG start-1 – alters start codon recognition fidelity in yeast | S. cerevisiae UUG-firefly luciferase reporter, luminescence/redox ratio | activity score, % at 18.7 µM | 350,000 compounds, 0.13% hits | AID 602363;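 active = replicate mean at a twofold rise or more, about +100% in these data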;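 note: firefly luciferase made from a UUG start codon reports start codon fidelity; reporter light over untreated wells divided by growth signal over untreated wells; some hits fall short of that in this replicate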
INS-1E GSIS act – primary screen for activators of insulin secretion dependent on glucose, INS-1E cells, GLuc reporter luminescence; INS-1E GLuc reporter insulin secretion, 2-3 h; activation, % at 16.6 µM; hit rate 0.61% among 370,000; AID 743287;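 active = lowest replicate activation of at least 40%, so every replicate reaches that level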
SR-BI uptake up – activators of SR-BI mediated HDL lipid uptake; CHO ldlA[mSR-BI] cells, DiI-HDL uptake fluorescence, 3 h; 100 = double the neutral-control signal; activation, % at 12.5 µM; hit rate 0.096% among 320,000; AID 504775;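 active = mean replicate activation of at least 60% and every replicate at or above 60%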
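system = CHO ldlA[mSR-BI] cells, LDL receptor-null, SR-BI overexpressing | medium = Ham's F12 with 0.5% BSA, HEPES 25 mM, pH 7.4 | probe or stimulus = DiI-HDL 10 µg/mL | compound dosing = single-point compound dose | incubation = compound exposure 3 h, 37 °C | technique = DiI fluorescence, bottom read | read-out = cell-associated DiI fluorescence as measure of HDL uptake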
Yeast UUG start-2 – modulators of start codon recognition fidelity in yeast; shares compounds with Yeast UUG start-1; activation, % at 38 µM; 540 tested, under 10 active; S. cerevisiae UUG-start firefly luciferase, luminescence, 4 h; 100% means double the DMSO signal;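 active = signal increase whose fitted curve reaches an absolute level of 40 at a concentration under 10 µM; inactive = activity opposite to the expected increase, or the rest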
Numbers stand for hits. Rows were chosen to be rich in hits. Some 1.3% of all compounds tested hit in one or more screens of this group.

CCCNC(=O)N(C)C[C@@H]1Oc2ncc(-c3ccc(C(=O)N(C)C)cc3)cc2C(=O)N([C@@H](C)CO)C[C@H]1C was read as Yeast UUG start-1 104, INS-1E GSIS act inactive and Yeast UUG start-2 inactive.
`COc1ccc(-c2cnc3c(c2)C(=O)N([C@@H](C)CO)C[C@H](C)[C@@H](CN(C)C(=O)NC2CCCC2)O3)cc1` gave Yeast UUG start-1 140, INS-1E GSIS act inactive and Yeast UUG start-2 inactive.
Screening COc1ccccc1-c1cnc2c(c1)C(=O)N([C@@H](C)CO)C[C@H](C)[C@@H](CN(C)C(=O)c1cccnc1)O2 returned Yeast UUG start-1 172, INS-1E GSIS act inactive and Yeast UUG start-2 inactive.
C[C@H](CO)N1C[C@H](C)[C@@H](CN(C)CC2CCOCC2)Oc2ncc(-c3cccc(F)c3)cc2C1=O was read as Yeast UUG start-1 157, INS-1E GSIS act inactive and Yeast UUG start-2 inactive.
`CC(=O)Nc1ccc2c(c1)C(=O)N(C)C[C@H](C)[C@H](CN(C)C(=O)NC(C)C)O2` gave INS-1E GSIS act inactive.
Screening C[C@@H]1CCc2cnnn2COC[C@@H](Cc2ccccc2)NC1=O returned INS-1E GSIS act inactive.
For Cc1[nH]c2ccccc2c1/C=N/NC(=O)c1cc(-c2ccccc2)n[nH]1 the results were SR-BI DiI inh inactive, Yeast UUG start-1 169, INS-1E GSIS act inactive, SR-BI uptake up inactive and Yeast UUG start-2 inactive.
Screening CSc1ccc(/C=C(\C#N)C(=O)NC2CCCCC2C)cc1 (stereo unspecified) returned SR-BI DiI inh inactive and SR-BI uptake up inactive.
For CC1CCCCC1NC(=O)/C(C#N)=C/c1ccccc1F (stereo unspecified) the results were SR-BI DiI inh inactive, Yeast UUG start-1 222, INS-1E GSIS act inactive, SR-BI uptake up inactive and Yeast UUG start-2 inactive.
For CC(C)c1cn(CC[C@H]2CC[C@H](N)[C@@H](CO)O2)nn1 the results were Yeast UUG start-1 134, INS-1E GSIS act inactive and Yeast UUG start-2 inactive.
Screening O=C(/C=C/c1ccccc1)Nc1nc(-c2ccncc2)cs1 returned SR-BI DiI inh inactive, Yeast UUG start-1 594, INS-1E GSIS act inactive, SR-BI uptake up inactive and Yeast UUG start-2 inactive.
O=C(/C=C\c1ccco1)Nc1nc(-c2ccccc2)cs1 was read as SR-BI DiI inh inactive and SR-BI uptake up inactive.
For O=c1cc(CO)occ1OCc1c(F)cccc1Cl the results were SR-BI DiI inh inactive, Yeast UUG start-1 inactive, INS-1E GSIS act inactive and SR-BI uptake up inactive.
O=c1cc(CO)occ1OCc1ccccc1 was read as SR-BI DiI inh inactive, Yeast UUG start-1 484, INS-1E GSIS act inactive, SR-BI uptake up inactive and Yeast UUG start-2 inactive.
`CCOc1cc(C(=S)N2CCOCC2)ccc1OC(=O)/C=C/c1ccc(OC)c(OC)c1` gave SR-BI DiI inh inactive, Yeast UUG start-1 517, INS-1E GSIS act inactive, SR-BI uptake up inactive and Yeast UUG start-2 inactive.
For C[C@@H]1CN([C@H](C)CO)C(=O)c2cccc(NS(=O)(=O)c3cn(C)cn3)c2O[C@H]1CN(C)C the results were Yeast UUG start-1 inactive and INS-1E GSIS act inactive.
Screening Cc1cc(Nc2ccccc2)nc(NCc2ccccc2)n1 returned SR-BI DiI inh inactive, INS-1E GSIS act inactive and SR-BI uptake up inactive.
Cc1cc(Nc2ccc(Cl)cc2)nc(NCc2ccccc2)n1 was read as SR-BI DiI inh inactive, Yeast UUG start-1 active, INS-1E GSIS act 300, SR-BI uptake up inactive and Yeast UUG start-2 inactive.
CNC[C@H]1Oc2cc(C#Cc3ccccc3F)ccc2S(=O)(=O)N([C@H](C)CO)C[C@@H]1C was read as Yeast UUG start-1 137, INS-1E GSIS act inactive and Yeast UUG start-2 inactive.
Screening C/C=C/c1ccc2c(c1)O[C@@H](CN(C)CCC)[C@@H](C)CN([C@@H](C)CO)S2(=O)=O returned Yeast UUG start-1 inactive and INS-1E GSIS act inactive.
`Cc1ccc(-c2ccc3c(c2)O[C@@H](CN(C)Cc2cncnc2)[C@@H](C)CN([C@H](C)CO)S3(=O)=O)cc1` gave Yeast UUG start-1 135, INS-1E GSIS act inactive and Yeast UUG start-2 inactive.
`C/C=C/c1ccc2c(c1)O[C@H](CN(C)CCC)[C@H](C)CN([C@H](C)CO)S2(=O)=O` gave Yeast UUG start-1 75, INS-1E GSIS act inactive and Yeast UUG start-2 inactive.
C[C@H]1CN([C@@H](C)CO)S(=O)(=O)c2ccc(C#Cc3ccncc3)cc2O[C@@H]1CN(C)S(=O)(=O)c1ccccc1 was read as Yeast UUG start-1 126, INS-1E GSIS act inactive and Yeast UUG start-2 inactive.
`C[C@@H]1CN([C@@H](C)CO)S(=O)(=O)c2ccc(C#Cc3ccncc3)cc2O[C@H]1CN(C)S(=O)(=O)c1ccccc1` gave Yeast UUG start-1 inactive and INS-1E GSIS act inactive.
For Cc1ccc(-c2ccc3c(c2)O[C@@H](CN(C)Cc2cncnc2)[C@H](C)CN([C@H](C)CO)S3(=O)=O)cc1 the results were Yeast UUG start-1 inactive and INS-1E GSIS act inactive.
For C[C@@H]1CN([C@H](C)CO)S(=O)(=O)c2ccc(C3=CCCCC3)cc2O[C@H]1CN(C)Cc1cccc(C(=O)O)c1 the results were INS-1E GSIS act inactive.
For C[C@H]1CN([C@@H](C)CO)S(=O)(=O)c2ccc(-c3cncnc3)cc2O[C@@H]1CN(C)C(=O)C1CCCCC1 the results were Yeast UUG start-1 254, INS-1E GSIS act inactive and Yeast UUG start-2 inactive.
`COc1ccccc1NC(=O)N(C)C[C@H]1Oc2cc(Br)ccc2S(=O)(=O)N([C@H](C)CO)C[C@H]1C` gave Yeast UUG start-1 inactive and INS-1E GSIS act inactive.
`C[C@H](CO)N1C[C@H](C)[C@H](CN(C)Cc2ccccn2)Oc2cc(-c3cncnc3)ccc2S1(=O)=O` gave Yeast UUG start-1 124, INS-1E GSIS act inactive and Yeast UUG start-2 inactive.
For COc1ccccc1NC(=O)N(C)C[C@H]1Oc2cc(Br)ccc2S(=O)(=O)N([C@@H](C)CO)C[C@@H]1C the results were Yeast UUG start-1 162, INS-1E GSIS act inactive and Yeast UUG start-2 inactive.
Screening CCCC#Cc1ccc2c(c1)O[C@@H](CN(C)C)[C@@H](C)CN([C@H](C)CO)S2(=O)=O returned Yeast UUG start-1 128, INS-1E GSIS act inactive and Yeast UUG start-2 inactive.
`C[C@H](CO)N1C[C@H](C)[C@H](CN(C)C(=O)C2CCCCC2)Oc2cc(-c3cncnc3)ccc2S1(=O)=O` gave Yeast UUG start-1 inactive and INS-1E GSIS act inactive.
Screening C[C@H]1CN([C@@H](C)CO)S(=O)(=O)c2ccc(-c3cncnc3)cc2O[C@@H]1CN(C)Cc1ccccn1 returned Yeast UUG start-1 inactive and INS-1E GSIS act inactive.
CO[C@H]1CN(C)C(=O)c2ccc(NS(C)(=O)=O)cc2OC[C@@H](C)N(C(=O)C2CCOCC2)C[C@H]1C was read as Yeast UUG start-1 inactive and INS-1E GSIS act inactive.
Screening CC(C)C#Cc1ccc2c(c1)O[C@H](CN(C)C(=O)CC1CC1)[C@H](C)CN([C@@H](C)CO)S2(=O)=O returned Yeast UUG start-1 inactive and INS-1E GSIS act inactive.
